{
  "source": "patent US20190209472A1",
  "about": "“FORMULATIONS FOR DERMAL DELIVERY OF POLYMER CONJUGATES OF INDOLOCARBAZOLE COMPOUNDS WITH REDUCED EXPOSURE” (Sienna Biopharmaceuticals, Inc., priority 2017, published 2019)",
  "key": {"[1]": {"assay": "Phase 1b maximal use study: plasma pharmacokinetics of SNA-120", "assay_type": "in vivo, human", "settings": "for Cmax: read-out: Cmax of the 1 subject above 2.5 ng/mL", "description": "This is a multicenter, open-label, Phase 1b study designed to evaluate the PK with maximal use of 0.5% w/w SNA-120 ointment (see Table 1), as measured by circulating plasma levels of SNA-120 in men and women aged ≥18 years who have at least moderate (e.g., moderate to severe) pruritus associated with at least moderate (e.g., moderate to severe) psoriasis vulgaris (PV) covering at least 20% body surface area (BSA). SNA-120 was evaluated as a topical, non-steroidal ointment to treat itch (pruritus) associated with psoriasis. SNA-120 was designed to achieve high local drug concentration in the target tissue while minimizing systemic exposure for patients. SNA-120 directly targets the peripheral itch pathway in the psoriatic plaque.\nApproximately 30 eligible subjects will receive 0.5% w/w SNA-120 ointment (2 mg/cm^2) proportional to approximately 35 mg active drug at each application for a subject with at least 20% BSA affected, administered twice daily over 4 weeks to the indicated areas in the Treatment Area. The “Treatment Area” is defined as the BSA (including the face, scalp, intertriginous, and genital areas) exclusive of the mucosa, palms, and soles. The “Affected Areas” to be treated within the Treatment Area shall include: 1) all psoriasis (e.g., plaques) present in the Treatment Area at Baseline; 2) any new or recurrent areas of psoriasis that may develop during the study; and 3) the original plaque area, even in the event that the psoriasis (erythema, induration, scale) resolves and the lesions are no longer clearly visible (aside from hyper/hypo pigmentation). Subjects should continue to apply study drug to current active plaques, resolved/resolving plaques (residual hyper/hypopigmentation), or newly appearing plaques for the full 4 weeks of treatment, always covering a minimum of 20% BSA.\nSerial blood draws for PK analysis will be obtained approximately the same time of day on Study Days 1 and 29. On those days, blood draws will be collected after each nominal ECG extraction time point. Predose blood samples on Days 1, 8, 15, and 29 should be taken within 1 hour prior to treatment administration start time. Administration may be performed by the study staff so that the subject can remain at rest.\nPharmacokinetics—Blood: Serial blood draws for PK analysis will be obtained approximately the same time of day for Study Days 1 and 29. The predose blood samples on Days 1, 8, 15, and 29 should be taken within 1 h prior to treatment administration start time. On Days 1 and 29, blood draws will be collected after each nominal ECG extraction time point; the actual times of collection will be recorded in the eCRF. Administration may be performed by the study staff so that the subject can remain at rest. Single PK sample blood draws with occur on Days 8 and 15 and should be within 1 hour prior to treatment administration start time.\nFor all subjects, blood sampling will be performed under controlled conditions to determine the PK profile of SNA-120 from 0 to 12 hours postdose (after the end of the SNA-120 application). Blood samples will be collected at Days 1 and 29 for PK determination of SNA-120 plasma level at time=predose, and 0.5, 0.75, 1, 2, 4, 8, and 12 hours after the end of the SNA-120 application. The predose and 0.5, 0.75, and 1-hour blood samples for PK determination should be collected within 5 minutes after SNA-120 administration. The 2, 4, and 8-hour PK blood samples should be collected within 15 minutes of the nominal collection time and the 12-hour PK blood sample should be collected within 30 minutes of the nominal collection time."}, "[2]": {"system": "subjects with pruritus associated with psoriasis vulgaris"}},
  "note": "Like-named read-outs stand apart in the source and are kept apart here.",
  "data": [
    {"substance": "(9S, 10R, 12R)-10-(3′-mPEG2000-1′,3′-oxazolidine-2′,4′-dione)-2,3,9,10,11,12-hexahydro-9-methyl-1-oxo-9,12-epoxy-1H-diindolo[1,2,3-fg:3′,2′,1′-k,l]pyrrolo[3,4-i][1,6] benzodiazocine] [CT327]", "values": [
      {"measurement": "Cmax of the 1 subject above 2.5 ng/mL", "setting": "[1]; Day 1", "result": 5.04, "unit": "ng/mL"},
      {"measurement": "Subjects with low (less than 2.5 ng/mL) detectable levels of SNA-120 in the plasma", "setting": "[1]; Day 1", "result": "30.0 % of subjects"},
      {"measurement": "% of subjects with peak plasma SNA-120 <2.50 ng/mL", "setting": "[1]; Day 1 (N = 30)", "result": 30.0, "unit": "%"},
      {"measurement": "% of subjects with peak plasma SNA-120 below quantitation limit", "setting": "[1]; Day 1 (N = 30)", "result": 66.7, "unit": "%"},
      {"measurement": "% of subjects with peak plasma SNA-120 ≥2.50 ng/mL", "setting": "[1]; Day 1 (N = 30)", "result": 3.3, "unit": "%"},
      {"measurement": "number of subjects (n) with peak plasma SNA-120 <2.50 ng/mL", "setting": "[1]; Day 1 (N = 30)", "result": 9},
      {"measurement": "number of subjects (n) with peak plasma SNA-120 below quantitation limit", "setting": "[1]; Day 1 (N = 30)", "result": 20},
      {"measurement": "number of subjects (n) with peak plasma SNA-120 ≥2.50 ng/mL", "setting": "[1]; Day 1 (N = 30)", "result": 1},
      {"measurement": "Peak Plasma SNA-120 Concentrations", "setting": "[1]; Day 1 (N = 30), subjects Below Quantitation Limit (BQL; 0.500 ng/mL plasma), BID topical 0.5% ointment", "result": "<0.500", "unit": "ng/mL"},
      {"measurement": "Peak Plasma SNA-120 Concentrations", "setting": "[1]; Day 1 (N = 30), subjects with detectable peak <2.50 ng/mL (approximately 1 nM)", "result": "0.500 to 1.51", "unit": "ng/mL"},
      {"measurement": "Peak Plasma SNA-120 Concentrations", "setting": "[1]; Day 1 (N = 30), subjects with peak ≥2.50 ng/mL", "result": 5.04, "unit": "ng/mL"},
      {"measurement": "Subjects with detectable levels of SNA-120 in the plasma", "setting": "[1]; Day 1, 10 out of 30 subjects", "result": 33.3, "unit": "%"},
      {"measurement": "Subjects with no detectable levels of SNA-120 in the plasma", "setting": "[1]; Day 1, 0.5% w/w ointment twice daily, maximal use", "result": "66.7 % of subjects"},
      {"measurement": "Cmax", "setting": "[1]; Day 1", "result": 2.05, "unit": "nM"},
      {"measurement": "Cmax of the 1 subject above 2.5 ng/mL", "setting": "[1]; Day 29", "result": 4.64, "unit": "ng/mL"},
      {"measurement": "Subjects with low (less than 2.5 ng/mL) detectable levels of SNA-120 in the plasma", "setting": "[1]; Day 29", "result": "28.6 % of subjects"},
      {"measurement": "Subjects with no detectable levels of SNA-120 in the plasma", "setting": "[1]; Day 29", "result": "67.9 % of subjects"},
      {"measurement": "% of subjects with peak plasma SNA-120 <2.50 ng/mL", "setting": "[1]; Day 29 (N = 28)", "result": 28.6, "unit": "%"},
      {"measurement": "% of subjects with peak plasma SNA-120 below quantitation limit", "setting": "[1]; Day 29 (N = 28)", "result": 67.9, "unit": "%"},
      {"measurement": "% of subjects with peak plasma SNA-120 ≥2.50 ng/mL", "setting": "[1]; Day 29 (N = 28)", "result": 3.6, "unit": "%"},
      {"measurement": "number of subjects (n) with peak plasma SNA-120 <2.50 ng/mL", "setting": "[1]; Day 29 (N = 28)", "result": 8},
      {"measurement": "number of subjects (n) with peak plasma SNA-120 below quantitation limit", "setting": "[1]; Day 29 (N = 28)", "result": 19},
      {"measurement": "number of subjects (n) with peak plasma SNA-120 ≥2.50 ng/mL", "setting": "[1]; Day 29 (N = 28)", "result": 1},
      {"measurement": "Peak Plasma SNA-120 Concentrations", "setting": "[1]; Day 29 (N = 28), subjects Below Quantitation Limit (BQL; 0.500 ng/mL plasma), BID topical 0.5% ointment", "result": "<0.500", "unit": "ng/mL"},
      {"measurement": "Peak Plasma SNA-120 Concentrations", "setting": "[1]; Day 29 (N = 28), subjects with detectable peak <2.50 ng/mL (approximately 1 nM)", "result": "0.583 to 0.902", "unit": "ng/mL"},
      {"measurement": "Peak Plasma SNA-120 Concentrations", "setting": "[1]; Day 29 (N = 28), subjects with peak ≥2.50 ng/mL", "result": 4.64, "unit": "ng/mL"},
      {"measurement": "Subjects with detectable levels of SNA-120 in the plasma", "setting": "[1]; Day 29, 9 out of 28 subjects", "result": 32.1, "unit": "%"},
      {"measurement": "Cmax", "setting": "[1]; Day 29", "result": 1.89, "unit": "nM"},
      {"measurement": "Post-baseline blood PK samples with detectable levels of SNA-120 (>0.500 ng/mL)", "setting": "[1]; of 489 samples", "result": 13.3, "unit": "%"},
      {"measurement": "Post-baseline blood PK samples with detectable levels of SNA-120 (>0.500 ng/mL), number", "setting": "[1]; of 489 samples", "result": 65},
      {"measurement": "Maximum number of subjects with a detectable level of SNA-120 at any post-baseline PK sampling timepoint", "setting": "[1]; out of 30", "result": 6},
      {"measurement": "Accumulation of SNA-120 in the plasma", "setting": "[1]; repeated BID topical application", "result": "no accumulation"},
      {"measurement": "Systemic exposure (in words)", "setting": "[1]; twice daily topical application under maximal use conditions", "result": "minimal to no systemic exposure"},
      {"measurement": "AE related to study drug: [events]", "setting": "[2]; N = 30", "result": 1},
      {"measurement": "AE related to study drug: subjects, %", "setting": "[2]; N = 30", "result": 3.3, "unit": "%"},
      {"measurement": "AE resulting in discontinuation: subjects, %", "setting": "[2]; N = 30", "result": "0 (0) %"},
      {"measurement": "AE: [events]", "setting": "[2]; N = 30", "result": 12},
      {"measurement": "AE: subjects, %", "setting": "[2]; N = 30", "result": 30, "unit": "%"},
      {"measurement": "Number of adverse events", "setting": "[2]; N = 30", "result": 12},
      {"measurement": "SAE: subjects, %", "setting": "[2]; N = 30", "result": "0 (0) %"},
      {"measurement": "Severe AE: subjects, %", "setting": "[2]; N = 30", "result": "0 (0) %"},
      {"measurement": "Subjects reporting adverse events", "setting": "[2]; N = 30", "result": 9},
      {"measurement": "Discontinued due to AE, (%)", "setting": "[2]; Phase 1b maximal use study, 30 subjects treated", "result": "(0) %"},
      {"measurement": "Adverse events deemed related to study drug", "setting": "[2]; mild pruritus", "result": "one"}
    ]}
  ]
}
